High-throughput results deposited in PubChem by National Center for Advancing Translational Sciences (NCATS).
miR-21 reporter: miR-21 reporter, rising signal; HeLa miR-21 FLuc reporter, luciferase, 48 h; Potency, µM (top dose mostly 38.3 µM), without a hit: at the top dose reporter change, positive = more light; 340,000 tested, under 10 active; active = well fitted rising curve with a large enough effect; inconclusive = small, poorly fitted or top-dose-only effect; inactive = no such curve, though single readings can be large or run the other way;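 note: % of control where 0% means no effect; miR-21 action dims this reporter so a rising signal means less miR-21 action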
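Luminescence from a firefly luciferase reporter carrying a miR-21 binding site downstream, stably expressed under a CMV promoter in HeLa cells that make miR-21 endogenously, reports miRNA modulation after 48 h compound exposure up to approximately 40uM final.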
TDP1 block: blocks human tyrosyl-DNA phosphodiesterase 1; AID 485290; recombinant TDP1, AlphaScreen DNA substrate cleavage; Q9NUW8; 350,000 tested, 0.28% active; Potency, µM (highest dose often 130 µM), without a hit: top-dose activity change, negative = inhibition, usual class: inhibitors; further: potency means the concentration at half of the fitted maximal effect; on the % scale 0 is the no-effect control and ±100 the full control effect; nearly all actives have a fitted effect of over 40% in size
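Compounds were preincubated with Tdp1 (1 nM final) for 15 min at room temperature before substrate (15 nM final) started a 5 min reaction; beads (10 ug/ml final) were then added for 10 min before AlphaScreen detection.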
uPA generation: blocks generation of uPA at the cell surface. cell surface uPA generation assay, qHTS. Potency, µM (titrated, usually from 38.3 µM), without a hit: at the highest dose activity change, negative = inhibition, most hits filed as inhibitors. 330,000 tested, 0.31% active. AID 540303; active means well fitted inhibition curve with a large enough effect; inconclusive means small, poorly fitted or top-dose-only effect; inactive means no such curve, though single readings can be large or run the other way; tested in mouse RAW 264.7 cells; further: potency means the concentration at half of the fitted maximal effect; on the % scale 0 is the no-effect control and ±100 the full control effect; nearly all actives have a fitted effect of over 55% in size
DT40 TDP1 CPT: growth inhibition of DT40 Tdp1-/-;hTDP1 cells with camptothecin (screen for TDP1 inhibitors) | Potency, µM (doses to about 46.2 µM), for inactives: at the highest dose activity change, negative = growth inhibition, most hits filed as inhibitors | chicken DT40 Tdp1-/-;hTDP1 cells + 20 nM CPT, ATP luminescence, 48 h | 420,000 tested, 12% active | AID 686979; further: potency means the concentration at half of the fitted maximal effect; on the % scale 0 is the no-effect control and ±100 the full control effect; nearly all actives have a fitted effect of over 55% in size
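Chicken DT40 Tdp1-/- cells stably complemented with human TDP1 were seeded at 400 cells/well in medium containing 20 nM camptothecin, exposed to pin-transferred compounds, and grown at 37 °C for at least 48 hr. Viability was read as ATP luminescence.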
TDP1 cell noCPT: qHTS for Inhibitors of human tyrosyl-DNA phosphodiesterase 1 (TDP1): qHTS in cells in absence of CPT | Potency, µM (highest dose often 46.2 µM), inactives show top-dose activity change, negative = growth inhibition, usual class: inhibitors | 420,000 tested, 15% active | AID 686978, 2013 | DT40 Tdp1-/- hTDP1 cells, no CPT, ATP luminescence, 48 h; further: potency means the concentration at half of the fitted maximal effect; on the % scale 0 is the no-effect control and ±100 the full control effect; nearly all actives have a fitted effect of over 55% in size
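DT40 Tdp1-/-;hTDP1 cells, no CPT (DMSO vehicle only), 400 cells/well; compounds pin-transferred; ≥48 hr, 37 °C; CellTiter-Glo 30 min RT dark, luminescence read.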
An asterisk follows results filed as active; ! = not confirmed by another sample; [ ] = dose if it differs, or a comment. Most compounds without a hit are left out; they make up all but 16% or so of the library. Unless noted, the call rests on the fitted dose curve; in most records, active means well fitted curve in the direction sought with a large enough effect; inconclusive means small, poorly fitted or top-dose-only effect, or another doubt; inactive means no such curve, though single readings can be large; an effect the other way counts as inactive or inconclusive.

Screening C[C@]12c3[nH]c4ccc(Cl)cc4c3CCN1C(=O)[C@@H](CC(=O)NCc1ccco1)C[C@@H]2C(=O)N1CCCCC1 returned TDP1 block 3%[56.1 µM], uPA generation inconclusive, DT40 TDP1 CPT 6.5µM* and TDP1 cell noCPT 5.8µM*.
`COCCCNC(=O)C[C@H]1C[C@H](C(=O)N2CCCCC2)[C@@]2(CCc3ccccc3)c3[nH]c4cc(-c5ccco5)ccc4c3CCN2C1=O` gave TDP1 block 5%[56.1 µM], uPA generation inconclusive, DT40 TDP1 CPT inconclusive and TDP1 cell noCPT inconclusive.
Screening COc1ccc2[nH]c3c(c2c1)CCN1C(=O)C(CC(=O)NCc2cccc(C(F)(F)F)c2)C[C@H](C(=O)N2CCCCC2)[C@@]31C (stereo partly specified) returned TDP1 block 4%[56.1 µM], uPA generation inconclusive, DT40 TDP1 CPT 10µM* and TDP1 cell noCPT 8.2µM*.
COc1ccc(CNC(=O)C[C@H]2C[C@H](C(=O)N3CCCCC3)[C@@]3(CCc4ccccc4)c4[nH]c5ccc(Cl)cc5c4CCN3C2=O)cc1OC was read as TDP1 block -1%[56.1 µM], uPA generation inconclusive, DT40 TDP1 CPT 10µM* and TDP1 cell noCPT 10µM*.
Screening CC(C)=CCC/C(C)=C/CNC(=O)C[C@H]1C[C@H](C(=O)N(C(C)C)C(C)C)[C@@]2(C)c3[nH]c4ccc(Cl)cc4c3CCN2C1=O returned TDP1 block 0%[56.1 µM], uPA generation 4%, DT40 TDP1 CPT inconclusive and TDP1 cell noCPT inconclusive.
`O=C(Cc1ccccc1)c1ccccn1` gave uPA generation 8%, DT40 TDP1 CPT inconclusive and TDP1 cell noCPT inconclusive.
For O=C(N/N=C/c1c(O)n(C2CC2)c(=S)[nH]c1=O)c1ccccc1O the results were miR-21 reporter -42%, TDP1 block 8%, uPA generation 1%, DT40 TDP1 CPT 11% and TDP1 cell noCPT 1%.
For CCOC(=O)N1CCN(CC(O)COCCC23CC4CC(CC(C4)C2)C3)CC1 (stereo unspecified) the results were miR-21 reporter 4%, TDP1 block 2%, uPA generation 6%, DT40 TDP1 CPT 12µM* and TDP1 cell noCPT 29µM*.
Screening Cc1ccc(C(=O)N[C@@H](C)CN2C3=NC[C@H](Cc4ccccc4)N3C[C@H]2Cc2ccc(O)cc2)cc1Br returned miR-21 reporter inconclusive, uPA generation inconclusive, DT40 TDP1 CPT 15µM* and TDP1 cell noCPT 16µM*.
For COc1ccc(C[C@H]2CN3C(=NC[C@@H]3Cc3ccc(O)cc3)N2C[C@H](C)NC(=O)c2ccc(C)c(Br)c2)cc1 the results were miR-21 reporter inconclusive, uPA generation inconclusive, DT40 TDP1 CPT 4.6µM* and TDP1 cell noCPT 21µM*.
Cc1ccc(C(=O)N[C@@H](C)CN2C3=NC[C@@H](Cc4ccccc4)N3C[C@H]2Cc2ccc(O)cc2)cc1Br was read as miR-21 reporter inconclusive, TDP1 block 5%, uPA generation -11%, DT40 TDP1 CPT 6.5µM* and TDP1 cell noCPT 7.3µM*.
For CC(C)CN(CC(C)C)C(=O)C1C2c3ccccc3C(c3ccccc32)C1C(=O)O (stereo unspecified) the results were miR-21 reporter 2%, TDP1 block 3%, uPA generation -5%, DT40 TDP1 CPT -16% and TDP1 cell noCPT inconclusive.
CC(Cc1ccccc1)NC(=O)Cc1ccc([N+](=O)[O-])cc1 (stereo unspecified) was read as miR-21 reporter -7%, uPA generation 13%, DT40 TDP1 CPT -17% and TDP1 cell noCPT -2%.
Screening CCOC(=O)c1cc2c(cn1)[nH]c1ccccc12 returned miR-21 reporter -36%, TDP1 block 5%, uPA generation 14%, DT40 TDP1 CPT inconclusive and TDP1 cell noCPT 18µM*!.
OC1(c2ccc(Cl)cc2)CCN(Cc2c[nH]c3ccccc23)CC1 was read as TDP1 block 8%[56.1 µM], uPA generation 4%, DT40 TDP1 CPT 13µM* and TDP1 cell noCPT 16µM*.
CC(C)N1CCN(Cc2c[nH]c3ccccc23)CC1CCO (stereo unspecified) was read as miR-21 reporter -1%, TDP1 block 1%, uPA generation 1%, DT40 TDP1 CPT inconclusive and TDP1 cell noCPT -12%.
Screening c1ccc2c(CN3CCCCC3)c[nH]c2c1 returned miR-21 reporter 1%, TDP1 block 2%, uPA generation inconclusive, DT40 TDP1 CPT 8.2µM* and TDP1 cell noCPT inconclusive.
`c1ccc(CCN2CCCCC2)nc1` gave uPA generation 1%, DT40 TDP1 CPT 9% and TDP1 cell noCPT -8%.
`CC1CCCCN1Cc1c[nH]c2ccccc12` (stereo unspecified) gave miR-21 reporter -1%, TDP1 block -1%, uPA generation inconclusive, DT40 TDP1 CPT 4.1µM* and TDP1 cell noCPT 7.3µM*.
`c1ccc2c(CCN3CCCCC3)c[nH]c2c1` gave DT40 TDP1 CPT -14% and TDP1 cell noCPT 0%.
Oc1ccc(CN2CCCCC2)c2cccnc12 was read as miR-21 reporter inconclusive, TDP1 block 1%, uPA generation inconclusive, DT40 TDP1 CPT 5.2µM* and TDP1 cell noCPT 5.2µM*.
`Cc1cccc(C)c1OP(N)(=O)OCC(F)(F)F` (stereo unspecified) gave miR-21 reporter -1%, TDP1 block 1%, uPA generation -2%, DT40 TDP1 CPT 2% and TDP1 cell noCPT 14%.
For CN(C(=O)Cc1ccc(Cl)c(Cl)c1)[C@H](CN1CCCC1)c1cccc(N=C=S)c1 the results were TDP1 block 14%, DT40 TDP1 CPT 12µM* and TDP1 cell noCPT 13µM*.
`CN(C(=O)Cc1ccc(Cl)c(Cl)c1)C(CN1CCCC1)c1cccc(N=C=S)c1` (stereo unspecified) gave TDP1 block 16%, DT40 TDP1 CPT 5.2µM* and TDP1 cell noCPT 3.3µM*.
`COc1ccc(C(CNC(=O)Cc2ccc(Cl)c(Cl)c2)N2CCCCC2)cc1` (stereo unspecified) gave miR-21 reporter -3%, TDP1 block 4%, uPA generation -11%, DT40 TDP1 CPT inconclusive and TDP1 cell noCPT inconclusive.
For COc1ccc(OC)c([C@H](O)[C@H](C)N)c1 the results were TDP1 block 6%[56.1 µM].
[O-][Cl+2]([O-])O was read as TDP1 block 12%.
COc1cc(OC)c(OC)cc1CNCCc1ccc2c(c1)OCO2 was read as miR-21 reporter -6%, uPA generation -15%, DT40 TDP1 CPT inconclusive and TDP1 cell noCPT inconclusive.

Looked up by compound from above (2):
CC(C)N1CCN(Cc2c[nH]c3ccccc23)CC1CCO (stereo unspecified) was read as miR-21 reporter -1%, TDP1 block 1%, uPA generation 1%, DT40 TDP1 CPT inconclusive and TDP1 cell noCPT -12%.
`COc1ccc(C(CNC(=O)Cc2ccc(Cl)c(Cl)c2)N2CCCCC2)cc1` (stereo unspecified) gave miR-21 reporter -3%, TDP1 block 4%, uPA generation -11%, DT40 TDP1 CPT inconclusive and TDP1 cell noCPT inconclusive.

By substructure, those above with a furan ring, fused or not (two)
Screening C[C@]12c3[nH]c4ccc(Cl)cc4c3CCN1C(=O)[C@@H](CC(=O)NCc1ccco1)C[C@@H]2C(=O)N1CCCCC1 returned TDP1 block 3%[56.1 µM], uPA generation inconclusive, DT40 TDP1 CPT 6.5µM* and TDP1 cell noCPT 5.8µM*.
`COCCCNC(=O)C[C@H]1C[C@H](C(=O)N2CCCCC2)[C@@]2(CCc3ccccc3)c3[nH]c4cc(-c5ccco5)ccc4c3CCN2C1=O` gave TDP1 block 5%[56.1 µM], uPA generation inconclusive, DT40 TDP1 CPT inconclusive and TDP1 cell noCPT inconclusive.
